Laboratory results as given in patent US20090175786A1.

Target: gastrin releasing peptide receptor (GRP-R), human (human), P30550
Experiment: 125I-BBN competition, PC3 cells

EQRYGNQWAVGHLM (modifications not checked) [p…-NH2]
IC50: 2.2 nM
